Source: ChEMBL document CHEMBL3414517, “Synthesis and structure-activity relationship study of a new series of selective σ(1) receptor ligands for the treatment of pain: 4-aminotriazoles” (J Med Chem, 2015)

By UniProt entry, the sequences of proteins in these tests, tags left out.
UniProt Q99720, whole entry: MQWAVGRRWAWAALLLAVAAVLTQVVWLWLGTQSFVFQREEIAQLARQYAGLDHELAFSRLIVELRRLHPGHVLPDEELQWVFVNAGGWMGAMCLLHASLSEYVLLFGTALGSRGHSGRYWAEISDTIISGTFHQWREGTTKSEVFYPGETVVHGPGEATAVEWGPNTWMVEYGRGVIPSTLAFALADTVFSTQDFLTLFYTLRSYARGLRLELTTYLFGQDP

Biological target: Sigma non-opioid intracellular receptor 1 (Homo sapiens, UniProt Q99720)
Assay: Displacement of [3H](+)-pentazocine from human sigma 1 receptor transfected in HEK293 cells after 120 mins by liquid scintillation counting
Type: cell-based

Ki [nM] | SMILES
275 | CC(=O)N1CCN(CCNc2cn(-c3ccc(Cl)c(Cl)c3)nn2)CC1
216 | CCN(CCN1CCOCC1)c1cn(-c2ccc(Cl)c(Cl)c2)nn1
111 | CCN(CCN1CCOCC1)c1cn(C23CC4CC(CC(C4)C2)C3)nn1
